The record followed here is article PMC6656732.

The assay has as its target Myosin-VI (myo6), native full-length construct, heavy chain co-expressed with human calmodulin (human) (UniProt P0DP23).

“Alexa488-phalloidin labelled F-actin (from UniProt P68135 1-377) (natural protein)” showed a gliding velocity of Alexa 488-labelled actin filaments translocated by myo6 bound to a DOPC:DOPE-Cy5 bilayer (motility assay, TIRF microscopy, 2 mM ATP, 22 °C, n = 153 filaments) of 365 nm/s.
